# The list shows a part of the results, in another mix than the full data. The source made the active and inactive calls.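 How the source made its calls: active means inhibition above about 30% together with a positive call from visual inspection of the well image (limit read from the data); inconclusive means inhibition above a set limit but visual check negative; inactive means inhibition not above a set limit, visual check negative.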
# Assay: inhibitors of IL-1B driven NFkB p65 nuclear import, primary screen, imaging, HUVEC, IL-1B stimulus, high-content imaging (AID 796);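 further: nuclear over cytoplasmic p65 intensity ratio measured by imaging; 0% = IL-1B stimulated DMSO wells and 100% = unstimulated DMSO wells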
# Settings: HUVEC IL-1B NFkB p65 nuclear translocation imaging; at 2 µM; stronger effect = higher value
row,Compound,inhibition
1,COc1ccc(NC2CCN(CCc3ccccc3)CC2)c(OC)c1,inactive: 4.3%
2,O=C(NCC1(N2CCOCC2)CCCCC1)c1cc2ccccc2o1,inactive: 6.7%
3,O=C(OC1CN2CCC1CC2)C1c2ccccc2Oc2ccccc21 (stereo not given),inactive: -23.4%
4,CN1CCC(Nc2cccc(F)c2)CC1,inactive: -2.1%
5,N#CC1(Nc2ccccc2)CCN(CCc2ccccc2)CC1,inactive: -23.6%
6,O=C(NCC1(N2CCOCC2)CCCCC1)c1cc(=O)[nH]c2ccccc12,inactive: 4.3%
7,c1ccc(CN2CCC(Nc3ccccc3)CC2)cc1,inactive: 1.6%
8,N/C(=N\O)c1c(N)no[n+]1[O-],inactive: -29.9%
9,CCOc1ncccc1C(=O)NCC1(N2CCOCC2)CCCCC1,inactive: 12.6%
10,CCC(CO)(C(=O)OC1CN2CCC1CC2)c1ccccc1 (stereo not given),inactive: -1.4%

# From PubChem BioAssay AID796 (Columbia University Molecular Screening Center, 2007)
